Reference: patent publication US20110319287A1, “MODULATOR ASSAY” (ADDEX PHARMA S.A., priority 2009, published 2011)

System: TNF-induced relocalisation of EYFP-TRADD (TNFR1-containing complex I) in HeLa cells
Test: TNF-mediated relocation of fluorescently tagged TRADD in Clone #49-E2 HeLa cells, 384-well (Example 2)
Assay type: cell-based, human
Conditions: FIG. 11
Method: In another embodiment of the invention, the fluorescently labelled reporter molecule EYFP-TRADD was transformed into HeLa cells as described in Example 1 to produce clone #49-E2 cells. The following experimental procedure to detect the reporter molecule in the presence of absence of a “test” compound (or molecule, as described below) was conducted.
On day 1, 10^3 cells per well were plated in thin glass bottom 384 wells plate in 50 μl of culture media (DMEM glutamax, 10% FBS, peni-strep, geneticin, hygromycin). The cells were incubated overnight at 37° C. On day 2, media was aspirated, and 35 μl of warm DMEM, 2, 5% FBS, HEPES 10 mM added. Then, 15 μl of 4× the test compound diluted in DMEM, 2, 5% FBS, HEPES 10 mM was added to cells using a Biomek laboratory automation workstation (Beckman-Coulter). This was incubated at room temperature for 1.5 min. Then, 20 μl of 4×TNF (or TL1A or IL1b) diluted in DMEM, 2, 5% FBS, HEPES 10 mM was added to the cells using the Biomek workstation, and the cells were incubated at 37° C. for 15 min. The cells were washed three times with PBS 1× using an Embla 384 Cell Washer (Molecular Devices). […] Readings were then taken on the Scientific Cellomics ArrayScan HCS Reader automated microscope system as used in Example 1.

## TNF: recombinant human TNF-α from Peprotech, Cat N° 300-01A
  TNF-dependent relocalisation of EYFP-TRADD: dose-dependent relocalisation
